By UniProt entry, the sequences of proteins in these tests, tags left out.
UniProt P35222, whole entry: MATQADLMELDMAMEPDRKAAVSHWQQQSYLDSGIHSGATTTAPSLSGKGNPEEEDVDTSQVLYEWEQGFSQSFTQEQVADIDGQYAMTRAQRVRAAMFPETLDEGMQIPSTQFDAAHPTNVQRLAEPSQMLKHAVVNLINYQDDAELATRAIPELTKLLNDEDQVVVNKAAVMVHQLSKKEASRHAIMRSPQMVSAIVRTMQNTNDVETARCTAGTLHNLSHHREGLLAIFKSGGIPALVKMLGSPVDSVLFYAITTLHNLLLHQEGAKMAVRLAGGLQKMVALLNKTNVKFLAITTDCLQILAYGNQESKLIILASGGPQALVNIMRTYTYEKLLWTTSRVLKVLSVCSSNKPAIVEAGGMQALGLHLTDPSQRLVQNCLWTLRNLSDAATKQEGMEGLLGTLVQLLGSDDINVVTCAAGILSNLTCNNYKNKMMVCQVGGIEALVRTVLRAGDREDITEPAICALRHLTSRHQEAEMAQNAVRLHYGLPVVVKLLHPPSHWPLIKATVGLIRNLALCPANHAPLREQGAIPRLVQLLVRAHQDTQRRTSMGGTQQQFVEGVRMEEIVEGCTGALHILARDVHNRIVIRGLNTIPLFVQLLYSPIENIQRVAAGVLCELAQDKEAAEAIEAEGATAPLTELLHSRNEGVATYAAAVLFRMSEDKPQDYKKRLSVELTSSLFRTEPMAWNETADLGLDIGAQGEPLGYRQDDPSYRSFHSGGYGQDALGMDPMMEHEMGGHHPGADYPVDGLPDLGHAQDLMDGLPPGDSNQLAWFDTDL

In patent US20240360179A1, “STAPLED PEPTIDES AND METHODS THEREOF” (FOG PHARMACEUTICALS, INC., priority 2021, published 2024):

Columns and labels:
[1] = biological target: beta-catenin/TCF4 interaction (Homo sapiens, UniProt P35222); test: cell-based; parameters: host or cells: HEK293; details: NanoBRET Abs IC50 (uM)
[2] = biological target: T1, full-length B-Catenin (Uniprot ID P35222) (Homo sapiens, UniProt P35222); test: biochemical; format: binding; details: beta-Catenin FP IC50 (nM), competition fluorescence polarization
T1 construct: 10 nM full-length B-Catenin (Uniprot ID P35222)

## CC(=O)N1CCC[C@]12CC=CCCCC1(CCCC=CCCCOC(=O)N3CC[C@@]4(C3)NC(=O)[C@H](CCCCNC(=O)CC[C@@H](C(=O)N[C@@H](C)C(N)=O)NC(=O)[C@H](Cc3csc5ccccc35)NC(=O)[C@H](Cc3ccsc3)NC4=O)NC(=O)[C@H](Cc3ccccc3)NC(=O)[C@H](C)NC(=O)[C@H](CCC(N)=O)NC(=O)[C@H](Cc3cccc(C(=O)O)c3)NC(=O)[C@H](CC(=O)O)NC1=O)NC(=O)[C@H](CC(C)(C)C)NC(=O)[C@H](CCO)NC2=O (relative stereo) [I-89, Ac-PL3-Hse-Npg-B5-Asp-3COOHF-Gln-Ala-Phe-Lys*3-PyrS2-3Thi-BztA-GlnR*3-Ala-NH2]
[1]
  IC50: > 10 µM
[2]
  IC50: 50 to 200 nM

## CC(=O)N1CCC[C@]12CC=CCCCC1(CCCC=CCCCOC(=O)N3CC[C@@]4(C3)NC(=O)[C@H](CCCCNC(=O)CC[C@@H](C(=O)N[C@@H](C)C(N)=O)NC(=O)[C@H](Cc3csc5ccccc35)NC(=O)[C@H](Cc3ccsc3)NC4=O)NC(=O)[C@H](Cc3ccccc3)NC(=O)[C@H](C)NC(=O)[C@H](CCC(N)=O)NC(=O)[C@H](Cc3cccc(C(=O)O)c3)NC(=O)[C@H](CC(N)=O)NC1=O)NC(=O)[C@H](CC(C)(C)C)NC(=O)[C@H](CC(=O)O)NC2=O (relative stereo) [I-90, Ac-PL3-Asp-Npg-B5-Asn-3COOHF-Gln-Ala-Phe-Lys*3-PyrS2-3Thi-BztA-GlnR*3-Ala-NH2]
[1]
  IC50: > 10 µM
[2]
  IC50: 50 to 200 nM

## CC(=O)N1CCC[C@]12CC=CCCCC1(CCCC=CCCCOC(=O)N3CC[C@@]4(C3)NC(=O)[C@H](CCCCNC(=O)CC[C@@H](C(=O)N[C@@H](C)C(N)=O)NC(=O)[C@H](Cc3csc5ccccc35)NC(=O)[C@H](Cc3ccccc3C(F)(F)F)NC4=O)NC(=O)[C@H](Cc3ccccc3)NC(=O)[C@H](C)NC(=O)[C@H](CC3CCCCC3)NC(=O)[C@H](Cc3cccc(C(=O)O)c3)NC(=O)[C@H](CC(=O)O)NC1=O)NC(=O)[C@H](CC1CCCCC1)NC(=O)[C@H](CC(=O)O)NC2=O (relative stereo) [I-103, Ac-PL3-Asp-Cha-B5-Asp-3COOHF-Cha-Ala-Phe-Lys*3-PyrS2-2F3MeF-BztA-GlnR*3-Ala-NH2]
[1]
  IC50: 3 to 10 µM
[2]
  IC50: < 50 nM

## CC(=O)N1CCC[C@]12CC=CCCCC1(CCCC=CCCCOC(=O)N3CC[C@@]4(C3)NC(=O)[C@H](CCCCNC(=O)CC[C@@H](C(=O)N[C@@H](C)C(N)=O)NC(=O)[C@H](Cc3csc5ccccc35)NC(=O)[C@H](Cc3ccccc3C(F)(F)F)NC4=O)NC(=O)[C@H](Cc3ccccc3)NC(=O)[C@H](C)NC(=O)[C@H](C)NC(=O)[C@H](CN(CC(=O)O)CC(F)(F)F)NC(=O)[C@H](CC(=O)O)NC1=O)NC(=O)[C@H](CC(C)(C)C)NC(=O)[C@H](CC(=O)O)NC2=O (relative stereo) [I-112, Ac-PL3-Asp-Npg-B5-Asp-TfeGA-Ala-Ala-Phe-Lys*3-PyrS2-2F3MeF-BztA-GlnR*3-Ala-NH2]
[1]
  IC50: 3 to 10 µM
[2]
  IC50: < 50 nM

## CC(=O)N1CCC[C@]12CC=CCCCC1(CCCC=CCCCOC(=O)N3CC[C@@]4(C3)NC(=O)[C@H](CCCCNC(=O)CC[C@@H](C(=O)N[C@@H](C)C(N)=O)NC(=O)[C@H](Cc3csc5ccccc35)NC(=O)[C@H](Cc3ccccc3C(F)(F)F)NC4=O)NC(=O)[C@H](Cc3ccccc3)NC(=O)[C@H](C)NC(=O)[C@H](CC(C)C)NC(=O)[C@H](CN(CC(=O)O)CC(F)(F)F)NC(=O)[C@H](CC(=O)O)NC1=O)NC(=O)[C@H](CC(C)(C)C)NC(=O)[C@H](CC(=O)O)NC2=O (relative stereo) [I-122, Ac-PL3-Asp-Npg-B5-Asp-TfeGA-Leu-Ala-Phe-Lys*3-PyrS2-2F3MeF-BztA-GlnR*3-Ala-NH2]
[1]
  IC50: > 10 µM
[2]
  IC50: < 50 nM

## CC(=O)N1CCC[C@]12CC=CCCCC1(CCCC=CCCCOC(=O)N3CC[C@@]4(C3)NC(=O)[C@H](CCCCNC(=O)CC[C@@H](C(=O)N[C@@H](C)C(N)=O)NC(=O)[C@H](Cc3csc5ccccc35)NC(=O)[C@H](Cc3ccccc3C(F)(F)F)NC4=O)NC(=O)[C@H](Cc3ccccc3)NC(=O)[C@H](C)NC(=O)[C@H](Cc3ccccc3)NC(=O)[C@H](CN(CC(=O)O)CC(F)(F)F)NC(=O)[C@H](CC(=O)O)NC1=O)NC(=O)[C@H](CC(C)(C)C)NC(=O)[C@H](CC(=O)O)NC2=O (relative stereo) [I-123, Ac-PL3-Asp-Npg-B5-Asp-TfeGA-Phe-Ala-Phe-Lys*3-PyrS2-2F3MeF-BztA-GlnR*3-Ala-NH2]
[1]
  IC50: > 10 µM
[2]
  IC50: 50 to 200 nM

## CC(=O)N1CCC[C@]12CC=CCCCC1(CCCC=CCCCOC(=O)N3CC[C@@]4(C3)NC(=O)[C@H](CCCCNC(=O)CC[C@@H](C(=O)N[C@@H](CC(C)C)C(N)=O)NC(=O)[C@H](Cc3csc5ccccc35)NC(=O)[C@H](Cc3ccccc3C(F)(F)F)NC4=O)NC(=O)[C@H](Cc3ccccc3)NC(=O)[C@H](C)NC(=O)[C@H](C)NC(=O)[C@H](CN(CC(=O)O)CC(F)(F)F)NC(=O)[C@H](CC(=O)O)NC1=O)NC(=O)[C@H](CC(C)(C)C)NC(=O)[C@H](CC(=O)O)NC2=O (relative stereo) [I-128, Ac-PL3-Asp-Npg-B5-Asp-TfeGA-Ala-Ala-Phe-Lys*3-PyrS2-2F3MeF-BztA-GlnR*3-Leu-NH2]
[1]
  IC50: 3 to 10 µM
[2]
  IC50: 50 to 200 nM

## CC(=O)N1CCC[C@]12CC=CCCCC1(CCCC=CCCCOC(=O)N3CC[C@@]4(C3)NC(=O)[C@H](CCCCNC(=O)CC[C@@H](C(=O)N[C@H](C(N)=O)C(C)C)NC(=O)[C@H](Cc3csc5ccccc35)NC(=O)[C@H](Cc3ccccc3C(F)(F)F)NC4=O)NC(=O)[C@H](Cc3ccccc3)NC(=O)[C@H](C)NC(=O)[C@H](C)NC(=O)[C@H](CN(CC(=O)O)CC(F)(F)F)NC(=O)[C@H](CC(=O)O)NC1=O)NC(=O)[C@H](CC(C)(C)C)NC(=O)[C@H](CC(=O)O)NC2=O (relative stereo) [I-129, Ac-PL3-Asp-Npg-B5-Asp-TfeGA-Ala-Ala-Phe-Lys*3-PyrS2-2F3MeF-BztA-GlnR*3-Val-NH2]
[1]
  IC50: 3 to 10 µM
[2]
  IC50: < 50 nM

## CC(=O)N1CCC[C@]12CC=CCCCC1(CCCC=CCCCOC(=O)N3CC[C@@]4(C3)NC(=O)[C@H](CCCCNC(=O)CC[C@@H](C(=O)N[C@@H](CC(C)C)C(=O)N[C@@H](CO)C(N)=O)NC(=O)[C@H](Cc3csc5ccccc35)NC(=O)[C@H](Cc3ccccc3C(F)(F)F)NC4=O)NC(=O)[C@H](Cc3ccccc3)NC(=O)[C@H](C)NC(=O)[C@H](C)NC(=O)[C@H](Cc3cccc(C(=O)O)c3)NC(=O)[C@H](CC(=O)O)NC1=O)NC(=O)[C@H](CC(C)(C)C)NC(=O)[C@H](CC(=O)O)NC2=O (relative stereo) [I-136, Ac-PL3-Asp-Npg-B5-Asp-3COOHF-Ala-Ala-Phe-Lys*3-PyrS2-2F3MeF-BztA-GlnR*3-Leu-Ser-NH2]
[1]
  IC50: 1.5 to 3 µM
[2]
  IC50: < 50 nM

## CCCC[C@@H]1NC(=O)[C@H](Cc2cccc(C(=O)O)c2)NC(=O)[C@H](CC(=O)O)NC(=O)C2(CCCC=CCCCOC(=O)N3CC[C@@]4(C3)NC(=O)[C@H](CCCCNC(=O)CC[C@@H](C(=O)N[C@@H](CC(C)C)C(=O)N[C@@H](CO)C(N)=O)NC(=O)[C@H](Cc3csc5ccccc35)NC(=O)[C@H](Cc3ccccc3C(F)(F)F)NC4=O)NC(=O)[C@H](Cc3ccccc3)NC(=O)[C@H](C)NC1=O)CCCC=CC[C@]1(CCCN1C(C)=O)C(=O)N[C@@H](CC(=O)O)C(=O)N[C@@H](CC(C)(C)C)C(=O)N2 (relative stereo) [I-137, Ac-PL3-Asp-Npg-B5-Asp-3COOHF-nLeu-Ala-Phe-Lys*3-PyrS2-2F3MeF-BztA-GlnR*3-Leu-Ser-NH2]
[1]
  IC50: 1.5 to 3 µM
[2]
  IC50: < 50 nM
